# The entries are a selection whose mix differs from that of the whole data set. Activity calls are given as the source filed them.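 The calls were made as follows: active = activation above a cutoff set at the mean activation of all tested compounds plus 3 SD (cut at about 54% in these data); inactive = the rest, inconclusive results apart.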
# Protein sequences, listed by entry. Tags and fused reporters are not part of them.
# UniProt P21453, whole entry: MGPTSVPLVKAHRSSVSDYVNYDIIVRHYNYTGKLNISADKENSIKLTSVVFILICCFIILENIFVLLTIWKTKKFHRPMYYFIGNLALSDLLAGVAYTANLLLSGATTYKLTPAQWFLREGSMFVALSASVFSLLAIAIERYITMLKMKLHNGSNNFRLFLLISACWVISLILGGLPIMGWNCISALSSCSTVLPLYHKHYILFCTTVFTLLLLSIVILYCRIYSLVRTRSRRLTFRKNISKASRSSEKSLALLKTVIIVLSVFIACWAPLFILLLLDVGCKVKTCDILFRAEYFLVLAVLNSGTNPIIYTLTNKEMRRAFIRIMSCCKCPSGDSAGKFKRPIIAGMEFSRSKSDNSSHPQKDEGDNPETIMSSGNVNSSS
# Target: Sphingosine 1-phosphate receptor 1 (Homo sapiens) (UniProt P21453)
# Assay: S1P1 agonists and agonism potentiators, primary screen, cell-based, primary and confirmation screens, CRE-bla reporter (AID 449);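 also: forskolin at 4 µM as EC80 and the EC20 agonist is SEW2871; 100% = SEW2871 at its EC100 plus forskolin at EC80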
# Details: S1P1 CRE-bla cells, forskolin, beta-lactamase FRET, potentiator mode; at 9.5 µM; stronger effect = higher value; 100% = saturating reference agonist, 0% = basal; S1P1 agonist co-added at EC20, 2 nM
row,Compound,activation
1,CP(=O)(Nc1ccccc1F)Oc1ccccc1 (stereo not given),inactive: -6.7%
2,CN(C)CCOC(=O)C(O)(c1ccccc1)C1CCCCC1 (stereo not given),inactive: 6.5%
3,Cc1ccccc1NP(C)(=O)Nc1ccccc1C,inactive: 8.2%
4,CCOP(C)(=S)SCC(=O)NC(C)(CC)C(=O)O (stereo not given),inactive: 2.1%
5,COc1ccccc1OP(C)(=O)Nc1c(C)n(C)n(-c2ccccc2)c1=O (stereo not given),inactive: 12.5%
6,CP(=O)(Oc1ccccc1)N1CCOC1=O (stereo not given),inactive: -0.8%
7,CCN(CC)CC(O)COC(=O)C(O)(c1ccccc1)C1CCCCC1 (stereo not given),inactive: -15.9%
8,Cc1nc2ccc3ccccc3c2o1.O=[N+]([O-])c1cc([N+](=O)[O-])c(O)c([N+](=O)[O-])c1,inactive: -3.8%
9,COc1ccccc1OP(C)(=O)Nc1ccc(C)c(C)c1 (stereo not given),inactive: 19.6%
10,CP(=O)(Nc1ccccn1)Oc1ccccc1 (stereo not given),inactive: -18.5%
11,Cc1ccc(NP(C)(=O)Oc2ccccc2)c(C)c1 (stereo not given),inactive: 2.9%
12,COc1ccccc1OP(C)(=O)Nc1ccc(C)cc1 (stereo not given),inactive: -9.9%
13,CP(=S)(Nn1cnnc1)Oc1ccccc1 (stereo not given),inactive: -1.1%
14,CCOP(C)(=S)SCC(=O)NC(C)C(=O)O (stereo not given),inactive: 9.8%
15,Cc1nc2ccc3ccccc3c2s1.O=[N+]([O-])c1cc([N+](=O)[O-])c(O)c([N+](=O)[O-])c1,inactive: -12.8%

# Source: PubChem BioAssay AID449 (The Scripps Research Institute Molecular Screening Center, 2006)
